Source: ChEMBL document CHEMBL1129378, “Octanol-, chloroform-, and propylene glycol dipelargonat-water partitioning of morphine-6-glucuronide and other related opiates” (J Med Chem, 1996)

Key:
physchem [1] = test: physchem
physchem [2] = test: physchem; remark: listed apart in the source

Row | Structure (SMILES) | pKa (physchem [1]) | pKa (physchem [2])
1 | CN1CC[C@]23c4c5ccc(O)c4O[C@H]2[C@@H](O[C@@H]2O[C@H](C(=O)O)[C@@H](O)[C@H](O)[C@H]2O)C=C[C@H]3[C@H]1C5 [MORPHINE GLUCURONIDE] | 8.22 | 2.77
2 | CN1CC[C@]23c4c5ccc(O[C@@H]6O[C@H](C(=O)O)[C@@H](O)[C@H](O)[C@H]6O)c4O[C@H]2[C@@H](O)C=C[C@H]3[C@H]1C5 [MORPHINE 3-GLUCURONIDE] | – | 2.86
